Measured values as given in ChEMBL document CHEMBL2057196, “Discovery of a novel class of potent human deoxyuridine triphosphatase inhibitors remarkably enhancing the antitumor activity of thymidylate synthase inhibitors” (J Med Chem, 2012).

Target: T1, Deoxyuridine 5'-triphosphate nucleotidohydrolase, mitochondrial (Homo sapiens, UniProt P33316)
T1 sequence (P33316 whole entry): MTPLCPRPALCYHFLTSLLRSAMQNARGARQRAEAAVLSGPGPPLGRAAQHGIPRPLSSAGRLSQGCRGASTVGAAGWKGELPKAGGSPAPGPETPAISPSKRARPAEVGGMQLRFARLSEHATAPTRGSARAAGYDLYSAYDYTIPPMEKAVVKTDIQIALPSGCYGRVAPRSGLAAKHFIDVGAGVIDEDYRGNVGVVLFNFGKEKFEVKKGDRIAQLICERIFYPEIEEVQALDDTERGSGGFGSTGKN
Test: Inhibition of human dUTPase assessed as production of [5-3H]dUMP from [5-3H]dUTP after 15 mins measured by HPLC analysis

IC50: 3.9 µM
SMILES: CC(C)(CCCOCn1ccc(=O)[nH]c1=O)NS(=O)(=O)c1ccccc1
